The values that follow come from US20250304644A1, “PEPTIDES TRIPLE AGONISTS OF GIP, GLP-1 AND GLP-2” (BAINAN BIOTECH APS, priority 2021, published 2025).

The chains behind the UniProt entries cited, without tags or fusion partners. Where a name states a change or a piece, a line headed by the entry shows the natural chain unless it says otherwise.
UniProt P43220: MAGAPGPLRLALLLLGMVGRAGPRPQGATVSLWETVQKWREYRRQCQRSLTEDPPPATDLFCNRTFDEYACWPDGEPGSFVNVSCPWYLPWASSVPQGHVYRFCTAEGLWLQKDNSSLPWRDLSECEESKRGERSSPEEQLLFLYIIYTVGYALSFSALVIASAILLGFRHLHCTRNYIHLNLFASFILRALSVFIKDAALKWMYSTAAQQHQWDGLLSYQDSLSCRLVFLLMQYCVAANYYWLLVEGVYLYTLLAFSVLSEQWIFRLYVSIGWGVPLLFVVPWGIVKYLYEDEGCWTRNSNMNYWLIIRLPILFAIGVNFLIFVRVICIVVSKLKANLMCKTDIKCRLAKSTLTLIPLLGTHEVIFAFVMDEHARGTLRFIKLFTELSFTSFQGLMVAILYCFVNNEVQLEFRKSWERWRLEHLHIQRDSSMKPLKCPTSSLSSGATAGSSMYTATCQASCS

Holding throughout (assay): cell-based or functional assay
For experiment [1], the target named is T1, human GIPR (glucose-dependent insulinotropic polypeptide receptor) (human, UniProt P48546 22-466).
T1 sequence (looked up): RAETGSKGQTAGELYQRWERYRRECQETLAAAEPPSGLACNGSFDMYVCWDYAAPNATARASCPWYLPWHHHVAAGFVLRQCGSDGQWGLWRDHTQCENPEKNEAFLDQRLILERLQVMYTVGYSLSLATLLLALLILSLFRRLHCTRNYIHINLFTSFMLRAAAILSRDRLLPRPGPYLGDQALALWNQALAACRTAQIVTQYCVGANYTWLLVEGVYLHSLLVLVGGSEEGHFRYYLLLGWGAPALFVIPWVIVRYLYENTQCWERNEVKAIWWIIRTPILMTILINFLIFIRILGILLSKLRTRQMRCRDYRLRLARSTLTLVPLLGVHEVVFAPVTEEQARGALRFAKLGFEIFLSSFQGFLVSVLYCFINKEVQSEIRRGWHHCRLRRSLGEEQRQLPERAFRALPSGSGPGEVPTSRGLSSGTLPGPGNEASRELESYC

For experiment [2], the target named is T2, human GLP-2R (glucagon-like peptide-2 receptor) (human, UniProt O95838 1-553).
T2 sequence (looked up): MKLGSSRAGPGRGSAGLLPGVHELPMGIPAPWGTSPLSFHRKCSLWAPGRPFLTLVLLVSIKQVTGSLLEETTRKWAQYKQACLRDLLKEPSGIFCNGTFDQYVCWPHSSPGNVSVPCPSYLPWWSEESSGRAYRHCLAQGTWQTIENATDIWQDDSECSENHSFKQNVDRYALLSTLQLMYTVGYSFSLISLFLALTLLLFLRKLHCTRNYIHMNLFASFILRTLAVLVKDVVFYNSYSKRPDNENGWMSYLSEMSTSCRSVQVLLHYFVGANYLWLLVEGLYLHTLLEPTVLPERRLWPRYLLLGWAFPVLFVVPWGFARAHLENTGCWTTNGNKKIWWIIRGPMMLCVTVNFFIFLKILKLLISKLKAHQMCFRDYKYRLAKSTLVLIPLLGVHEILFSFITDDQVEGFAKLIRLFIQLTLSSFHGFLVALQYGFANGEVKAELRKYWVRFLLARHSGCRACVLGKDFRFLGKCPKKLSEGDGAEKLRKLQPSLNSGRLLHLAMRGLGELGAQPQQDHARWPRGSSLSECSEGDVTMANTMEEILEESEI

The target in experiment [3] is human GLP-1R (glucagon-like peptide-1 receptor) (human, UniProt P43220 24-463).
Experiment [4] deals with T3, Human N-terminally SNAP-tagged GIPR (human, UniProt P48546 22-466, SNAP tag labeled with Tag-Lite SNAP-Lumi4-Tb).
T3 sequence (looked up): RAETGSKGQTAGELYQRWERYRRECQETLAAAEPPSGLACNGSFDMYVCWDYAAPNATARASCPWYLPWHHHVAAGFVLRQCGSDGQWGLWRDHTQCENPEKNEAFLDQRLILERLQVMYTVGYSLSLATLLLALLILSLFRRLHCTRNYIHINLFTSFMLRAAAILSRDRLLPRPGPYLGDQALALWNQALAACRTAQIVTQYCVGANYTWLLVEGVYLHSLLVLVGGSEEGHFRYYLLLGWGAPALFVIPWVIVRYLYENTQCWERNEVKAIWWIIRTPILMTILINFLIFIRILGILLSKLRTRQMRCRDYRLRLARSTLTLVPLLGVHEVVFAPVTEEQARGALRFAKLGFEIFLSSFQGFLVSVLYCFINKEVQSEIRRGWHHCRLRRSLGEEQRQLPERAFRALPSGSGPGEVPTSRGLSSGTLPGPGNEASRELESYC

Experiment [5] addresses human SNAP-tagged GLP-1R (human, UniProt P43220 24-463, SNAP tag labeled with Tag-Lite SNAP-Lumi4-Tb).
Experiment [6] deals with T4, human SNAP-tagged GLP-2R (human, UniProt O95838 1-553, SNAP tag labeled with Tag-Lite SNAP-Lumi4-Tb).
T4 sequence (looked up): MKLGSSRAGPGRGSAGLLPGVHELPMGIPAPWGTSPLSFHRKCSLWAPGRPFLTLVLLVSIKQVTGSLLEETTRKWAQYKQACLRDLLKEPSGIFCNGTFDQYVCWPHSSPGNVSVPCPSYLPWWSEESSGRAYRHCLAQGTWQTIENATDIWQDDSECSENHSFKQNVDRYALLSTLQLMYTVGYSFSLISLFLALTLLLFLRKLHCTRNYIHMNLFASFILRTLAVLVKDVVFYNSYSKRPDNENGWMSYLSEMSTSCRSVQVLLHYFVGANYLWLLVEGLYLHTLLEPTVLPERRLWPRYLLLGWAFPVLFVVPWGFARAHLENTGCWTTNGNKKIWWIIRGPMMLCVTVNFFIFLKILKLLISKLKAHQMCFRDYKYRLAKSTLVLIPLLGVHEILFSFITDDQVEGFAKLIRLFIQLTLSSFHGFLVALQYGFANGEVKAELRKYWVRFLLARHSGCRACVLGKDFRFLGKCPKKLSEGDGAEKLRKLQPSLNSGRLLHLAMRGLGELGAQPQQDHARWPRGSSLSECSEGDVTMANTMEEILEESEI

B1: Compound 30 (peptide)
peptide: HADGTFISDYSTILDKLAARDFINWLIQTKGKKOH
modifications: K16 acylated, K-(2xAEEA-γGlu-C18-diacid); C-terminus -OH
Turning to B1, in experiment [1], the “EC50 (nM) GIPR” value amounted to 0.056 nM and the “pEC50 GIPR” value is 10.3. Also, the “EC50 (nM) GLP-2R” value in experiment [2] turned out to be 1.4 nM. In experiment [3], the “EC50 (nM) GLP-1R” value was 0.5 nM and the “logEC50 GLP-1R” value came to 9.3. Further, the “Relative hGIPR internalization (%)” value in experiment [4] is 57%. In addition, the “Relative hGLP-1R internalization (%)” value in experiment [5] came out at 8.6%. Besides, the “Relative hGLP-2R internalization (%)” value in experiment [6] was determined as 46.8%.

B2: Compound 33 (peptide)
peptide: HADGTFISDYSTILDNLAARDFINWLIQTKGKKOH
modifications: K33 (C-terminal residue) acylated, K-(2xAEEA-γGlu-C18-diacid); C-terminus -OH
On to B2, for which, in experiment [1], the “EC50 (nM) GIPR” value was 0.141 nM and the “pEC50 GIPR” value is 9.9. Moreover, in experiment [2], the “EC50 (nM) GLP-2R” value was found to be 66.1 nM and the “logEC50 GLP-2R” value was 7.2. For the same molecule, in experiment [3], the “EC50 (nM) GLP-1R” value came to 3.6 nM and the “logEC50 GLP-1R” value worked out at 8.4. Besides, in experiment [4], the “Relative hGIPR internalization (%)” value came out at 43%. Also, in experiment [5], the “Relative hGLP-1R internalization (%)” value amounted to 7.7%. The “Relative hGLP-2R internalization (%)” value in experiment [6] was found to be 13.2%.
